# A selection: hits, their analogues and other compounds. The true share with any hit is near 13%.
# G9a inh = G9a (human) methyltransferase inhibition. Q96KQ7. G9a H3K9 monomethylation, AlphaScreen, 2 h. Potency, µM (doses to about 102 µM), usual class: inhibitors. 350,000 compounds, 8.8% hits. AID 504332; note: nearly all actives have a fitted effect of over 75% in size
#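 Enzyme 20 nM + cpd, 15 min RT; add b-H3K9 pep 500 nM / SAM 20 uM; 2 h RT; anti-H3K9me1 Ab 0.5 ug/mL + SA donor / anti-rabbit acceptor beads 20 ug/mL each, 10 min; AlphaScreen read.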
# miR-21 reporter = miR-21 reporter, rising signal. HeLa miR-21 FLuc reporter, luciferase, 48 h. Potency, µM (titrated, usually from 38.3 µM). 340,000 tested, under 10 active. AID 2288; active = well fitted rising curve with a large enough effect; inconclusive = small, poorly fitted or top-dose-only effect; inactive = no such curve, though single readings can be large or run the other way;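 also: miR-21 action dims this reporter so a rising signal means less miR-21 action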
#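 HeLa cells stably expressing CMV-driven firefly luciferase with a downstream miR-21 binding sequence, endogenously expressing miR-21, were treated with titrations (up to about 40uM final) for 48 hours at 37 degree Celsius. Luciferase luminescence was read after lysis.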
# Sfp PPTase inh = inhibitors of Bacillus subtilis Sfp phosphopantetheinyl transferase | Q9F4F7 | 310,000 compounds, 3.5% hits | Biochemical Sfp PPTase activity, qHTS | Potency, µM, hits mostly inhibitors;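 note: the enzyme is Sfp with the accession as filed and its product quenches rhodamine fluorescence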
#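 Fluorescence-quenching assay with 15 nM Sfp, 5 uM rhodamine-CoA and 12.5 uM BHQ-2-labelled ybbR peptide in pH 7.6 Hepes/MgCl2 buffer. Enzyme was pre-incubated with compound for 15 min at room temperature. Rate was taken from the 30-min fluorescence change (525/598 nm).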
# ALDH1A1 inh = inhibitors of human aldehyde dehydrogenase 1A1 | P00352 | Purified ALDH1A1, NADH fluorescence, propionaldehyde substrate | Potency, µM (titrated, usually from 75.3 µM), usual class: inhibitors | 220,000 compounds, 7.3% hits; active = well fitted inhibition curve with a large enough effect, not every such curve was filed as active; inconclusive = small, poorly fitted or top-dose-only effect, or another doubt; inactive = no such curve, though single readings can be large or run the other way
# Lamin A splicing = LMNA splicing modulation | AID 1487 | 200,000 compounds, 0.01% hits | HeLa LMNA splicing GFP/RFP minigene ratio, 48 h | Potency, µM (doses to about 46.1 µM), actives largely listed as inhibitors; active = well fitted inhibition curve with a large enough effect in the signal ratio, with a control signal flat, not every such curve was filed as active; inconclusive = small, poorly fitted or top-dose-only effect, or effect the other way, or a change in a side signal; the % refers to the signal ratio
#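 Read-out is the ratio of GFP to DsRed2 object intensity, acquired by 488 nm laser-scanning cytometry on HeLa lamin A-EGFP minigene reporter cells. Compound incubation 48 hrs at 37 °C in Opti-MEM with 2% FBS; DMSO 0.5% final.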
# KDM4E inh = blocks human JMJD2E demethylase activity; JMJD2E catalytic domain, FDH-coupled NADH fluorescence (FDH is formaldehyde dehydrogenase); Potency, µM (titrated, usually from 57.1 µM), hits mostly inhibitors; 230,000 compounds, 1.6% hits; active = well fitted inhibition curve with a large enough effect, not every such curve was filed as active; inconclusive = small, poorly fitted or top-dose-only effect, or another doubt; inactive = no such curve, though single readings can be large or run the other way; note: nearly all actives have a fitted effect of over 50% in size
# A number is an active result; n = inactive; u = inconclusive; x = not tested or not shown. Unless noted, calls come from the whole dose curve; as a rule, active = well fitted curve in the direction sought with a large enough effect; inconclusive = small, poorly fitted or top-dose-only effect, or another doubt; inactive = no such curve, though single readings can be large; an effect the other way counts as inactive or inconclusive.
SMILES,G9a inh,miR-21 reporter,Sfp PPTase inh,ALDH1A1 inh,Lamin A splicing,KDM4E inh
O=C(CN1C(=O)NC2(CCCc3ccccc32)C1=O)NCc1ccc(Cl)cc1Cl (stereo unspecified),n,n,n,x,x,x
COc1ccc(C)cc1NC(=O)C(NCC1CCCO1)c1ccccc1 (stereo unspecified),n,n,n,18µM,u,n
COc1cccc(NC(=O)C(NCC2CCCCC2)c2ccccc2)c1 (stereo unspecified),3.2µM,n,50µM,u,n,u
COc1ccc(C)cc1NC(=O)C(c1ccccc1)N1CCN(CC(=O)N2CCOCC2)CC1 (stereo unspecified),45µM,x,x,x,x,x
Cc1ccc(C2(c3ccccc3)NC(=O)N(CC(=O)NCc3ccccc3)C2=O)cc1C (stereo unspecified),n,x,x,x,x,x
N#C/C(=C\c1cc(Cl)ccc1O)C(=O)NC1CCCCC1,n,n,n,n,n,n
N#C/C(=C\c1ccc(F)c(F)c1)C(=O)NC1CCCCC1,n,n,n,n,n,n
N#C/C(=C\C=C\c1ccccc1[N+](=O)[O-])C(=O)NC1CCCCC1,u,u,n,25µM,u,n
N#C/C(=C\c1cc(Cl)cc(Cl)c1O)C(=O)NC1CCCCC1,u,n,n,32µM,n,u
N#C/C(=C\c1cccn1-c1ccccc1)C(=O)NC1CCCCC1,n,n,n,7.1µM,u,n
N#C/C(=C\c1ccccc1[N+](=O)[O-])C(=O)NC1CCCCC1,n,n,89µM,7.1µM,n,n
O=C(CN1C(=O)C2(SCC(=O)N2c2cccc(Cl)c2)c2ccccc21)NCCc1ccccc1 (stereo unspecified),n,n,x,x,n,x
N#C/C(=C/c1ccc(-c2ccc(Br)cc2)o1)C(=O)NC1CCCCC1,n,n,n,1.1µM,u,n
O=C(Nc1ccc(-n2nncc2-c2ccco2)cc1)c1cccc(F)c1,45µM,n,u,u,n,n
O=C(Nc1ccc(-n2nncc2-c2ccccc2)cc1)c1cccc(F)c1,n,n,x,x,u,x
COc1ccccc1C(=O)c1c(N)c(-c2nc(-c3ccccc3)cs2)c2ccccn12,n,n,x,x,x,x
COc1ccc(S(=O)(=O)NCCSC(C)(C)C)c(Cl)c1Cl,u,n,n,2.4µM,n,n
COCCNC(=O)c1ccc2c(c1)NC(=O)C(CS(=O)(=O)Cc1ccc(F)cc1Cl)N2 (stereo unspecified),u,n,x,x,n,x
CCOC(=O)N1CCC(=NNc2ccc(S(N)(=O)=O)cc2[N+](=O)[O-])CC1,u,n,n,u,u,n
CCCN1CCC(=NNc2ccc(S(=O)(=O)N(CC)CC)cc2[N+](=O)[O-])CC1,35µM,n,n,n,n,n
CCCN1CCC(=NNc2ccc(S(N)(=O)=O)cc2[N+](=O)[O-])CC1,14µM,n,n,n,x,n
Cc1ccc(N2CC(NC(=O)c3ccc(S(=O)(=O)N4CCCC4)cc3)CC2=O)cc1 (stereo unspecified),n,n,x,x,u,x
CCOC(=O)CSC1=NC(=O)/C(=C\c2ccc(OC(C)=O)cc2)S1,40µM,n,u,n,n,n
O=C(Nc1ccc(Cl)cc1)C1CCN(c2nc3ccccc3n3cccc23)CC1,n,n,x,x,u,x
CC(NC(=O)CN1C(=O)c2cccnc2Oc2ccc(Cl)cc21)c1ccccc1 (stereo unspecified),n,n,x,x,n,x
SMILES,G9a inh,miR-21 reporter,Sfp PPTase inh,ALDH1A1 inh,Lamin A splicing,KDM4E inh
Cc1ccc(-c2nc3c(c(=O)[nH]c(=O)n3Cc3ccccc3)n2Cc2ccccc2)o1,10µM,n,13µM,u,x,n
Cc1ccc(-c2nc3c(c(=O)[nH]c(=O)n3Cc3ccccc3)n2C)s1,n,n,n,x,x,u
Cc1ccc(-c2nc3c(c(=O)[nH]c(=O)n3Cc3ccccc3)n2C)o1,1.4µM,n,10µM,u,x,u
Cn1cc(S(=O)(=O)c2ccc(Cl)cc2)c(=O)c2cc(F)c(N3CCCC3)cc21,n,n,x,x,u,x
CN1CCN(C2=C(Cl)C(=O)N(c3ccc(Cl)cc3)C2=O)CC1,5µM,n,n,u,n,n
O=C1C(Cl)=C(N2CCOCC2)C(=O)N1c1cccc(Cl)c1,u,n,n,u,n,n
Cc1cccc(N2C(=O)C(Cl)=C(N3CCOCC3)C2=O)c1,u,n,3.5µM,u,x,n
CC1=C(C(=O)Nc2ccccc2Cl)C(c2cccc(O)c2)n2ncnc2N1 (stereo unspecified),n,n,x,x,n,x
COc1ccc(S(=O)(=O)NC2CC(=O)N(c3ccc4c(c3)OCCO4)C2)cc1 (stereo unspecified),n,x,x,x,x,x
CCCS(=O)(=O)NCc1cn2c(C)csc2n1,56µM,n,n,n,n,n
Cc1csc2nc(CNC(=O)CCC(=O)O)cn12,50µM,n,n,n,n,n
CC(=O)NCc1cn2c(C)csc2n1,n,n,n,n,n,n
CCS(=O)(=O)NCc1cn2c(C)csc2n1,n,n,n,n,n,n
O=[N+]([O-])c1ccc(-c2cnc(SC(c3ccccc3)c3ccccc3)[nH]2)cc1,13µM,u,n,u,u,n
O=[N+]([O-])c1ccc(-c2cnc(SCc3ccccc3Cl)[nH]2)cc1,35µM,n,n,u,u,n
NC(=O)CSc1ncc(-c2ccc([N+](=O)[O-])cc2)[nH]1,u,n,n,u,x,n
Cc1cc(C)c(CSc2ncc(-c3ccc([N+](=O)[O-])cc3)[nH]2)c(C)c1,u,n,n,u,u,n
CN(CC(=O)NCc1ccc(Cl)cc1)S(=O)(=O)c1cccc2cccnc12,n,n,n,n,n,n
CN(CC(=O)Nc1n[nH]c(=S)s1)S(=O)(=O)c1cccc2cccnc12,1.6µM,n,40µM,x,x,x
CN(CC(=O)NCc1ccco1)S(=O)(=O)c1cccc2cccnc12,71µM,n,n,n,n,n
O=C(C1=NN[C@@H]2C(=O)N(c3cccc(C(F)(F)F)c3)C(=O)[C@H]12)C(c1ccccc1)c1ccccc1,n,n,n,u,n,n
O=C(C1=NN[C@@H]2C(=O)N(c3ccccc3C(F)(F)F)C(=O)[C@H]12)c1ccc2ccccc2n1,n,n,n,n,n,n
O=C(C1=NNC2C(=O)N(c3ccccc3)C(=O)C12)c1nc(Cl)ccc1Cl (stereo unspecified),n,n,n,n,n,n
O=C(C1=NN[C@@H]2C(=O)N(c3cccc(C(F)(F)F)c3)C(=O)[C@H]12)c1cnccn1,40µM,n,n,x,x,n
N#Cc1ccc(N2C(=O)[C@@H]3C(C(=O)c4ccc5ccccc5n4)=NN[C@@H]3C2=O)cc1,u,n,n,7.9µM,n,n
N#Cc1ccc(N2C(=O)[C@@H]3C(C(=O)c4cnccn4)=NN[C@@H]3C2=O)cc1,x,n,18µM,14µM,x,u

# Source: PubChem (National Center for Advancing Translational Sciences (NCATS))
